Reference: publication PMC5529018, “Discovery of novel brain permeable and G protein-biased beta-1 adrenergic receptor partial agonists for the treatment of neurocognitive disorders” (PLoS ONE, 2017)

Tests used:
[1] = Microsomal stability assay, human; assay type: in vitro ADME; conditions: 0.1 uM
[2] = Pharmacokinetic study 1, 4-hr time course; assay type: in vivo, Sprague-Dawley rats; conditions: rat, 10 mg/kg
Description: (§1) Two cohorts of Sprague-Dawley rats were used in two independent studies. All animals were fasted overnight before the experiment with free access to water. In study 1, a total of 18 rats were used for a 4 hr time course pharmacokinetic (PK) study. Rats were anesthetized with 3% isoflurane and catheters were implanted into the jugular and/or portal veins for compound administration and/or blood sampling at 1 to 2 days prior to the experiments as previously described. […] Four hours post-dose, rats were deeply anesthetized with isoflurane and blood samples were collected by cardiac puncture. In study 2, a total of 18 rats were used for a 20 min post-dose collection study. […] At 20 min post-dose, rats were deeply anesthetized with isoflurane and blood samples were collected by cardiac puncture. Brains were collected after perfusion with phosphate buffered saline. All plasma samples were immediately separated after collection by centrifugation (11,000 rpm for 3 minutes) and stored at −80°C until analysis. […] Tulobuterol was used as the internal standard. The flow rate was set to 0.45 ml/min. Column temperature was 25°C. […] The injection volume was 20 μl. The mass spectrometer was operated in the positive mode with multiple-reaction monitoring (MRM). […] Mobile phase A consisted of 10 mM ammonium acetate and 0.1% formic acid in LCMS grade water. […]

[3] = Pharmacokinetic study 2, 20-min post-dose collection; assay type: in vivo, Sprague-Dawley rats; conditions: rat, 10 mg/kg IV or IP
Description: as §1

COc1ccccc1OCCNC[C@H](O)COc1ccc(O)cc1.COc1ccccc1OCCNC[C@H](O)COc1ccc(O)cc1.O=C(O)/C=C/C(=O)O [STD-101-D1, (S)-4-(2-hydroxy-3-((2-(2-methoxyphenoxy)ethyl)amino)propoxy)phenol hemifumarate]
reduction after 60 min in human microsomes, in words [1]: almost no reduction | amount detected in the brain at 4 hrs post dose, in words [2]: only a trace | brain concentration relative to EC50 for ADRB1 in vitro [3]: up to 148 fold
